Values quoted from earlier work, collected in patent publication CN114831954A, “一种左氧氟沙星片” (priority 2022, dated 2022).

Details: oral, background statement

CC1COc2c(N3CCN(C)CC3)c(F)cc3c(=O)c(C(=O)O)cn1c23 (stereo not shown) [氧氟沙星]
effect of food intake on bioavailability: 生物利用度受进食影响很小
